Our source for the inhibition values is PubChem BioAssay AID504634 (The Scripps Research Institute Molecular Screening Center, 2011).

Amino acid sequences for entries named in this document (tags omitted).
UniProt P47898, whole entry: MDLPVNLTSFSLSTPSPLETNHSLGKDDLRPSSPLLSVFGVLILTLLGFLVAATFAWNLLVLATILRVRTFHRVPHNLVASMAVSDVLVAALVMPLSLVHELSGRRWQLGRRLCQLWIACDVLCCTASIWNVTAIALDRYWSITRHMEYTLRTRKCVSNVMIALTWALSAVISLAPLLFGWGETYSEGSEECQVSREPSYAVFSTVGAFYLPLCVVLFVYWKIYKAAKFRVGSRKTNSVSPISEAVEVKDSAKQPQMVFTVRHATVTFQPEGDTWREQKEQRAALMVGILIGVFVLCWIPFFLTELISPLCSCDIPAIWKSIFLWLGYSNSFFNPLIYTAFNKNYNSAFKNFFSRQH

Each structure is given as a SMILES string. This is a selection; strong and weak results do not stand in their true shares. The source made the active and inactive calls. Cut-off read from the data, not from the text of the source: active = inhibition mostly above about 23% (no sharp cut-off); inactive = mostly below about 18%.

One may read the inhibition as the change of the read-out against control, counted positive when it falls.

For this assay, the target named is 5-hydroxytryptamine receptor 5A (Homo sapiens) (UniProt P47898). The assay is described as follows: inverse agonism at human 5-HT5A receptor – cell-based, luminescence, full-deck HTS, counter-screen for OPRM1-OPRD1 heterodimer inverse agonist project, primary screen (AID 504634).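 Note: 0% = cells with DMSO and 100% = no-cell wells with DMSO.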 The note with it: HTR5A cell line, at 9.3 µM, stronger effect = higher value.
Turning to `Cc1ccc(-c2csc(NC(=O)Cn3cnc4c3c(=O)n(C)c(=O)n4C)n2)cc1C`, the inhibition was inactive: -1.74%. In the case of `COc1ccccc1OP(C)(=O)Nc1ccc(C)cc1` (configuration not stated) it was inactive: 4.83%.
